From patent publication US10138229B2, “Heteroaromatic compounds as BTK inhibitors” (Boehringer Ingelheim International GmbH, priority 2012, dated 2018)

Amino acid sequences for entries named in this document (tags omitted). Residues count along the entry.
UniProt Q06187, whole entry: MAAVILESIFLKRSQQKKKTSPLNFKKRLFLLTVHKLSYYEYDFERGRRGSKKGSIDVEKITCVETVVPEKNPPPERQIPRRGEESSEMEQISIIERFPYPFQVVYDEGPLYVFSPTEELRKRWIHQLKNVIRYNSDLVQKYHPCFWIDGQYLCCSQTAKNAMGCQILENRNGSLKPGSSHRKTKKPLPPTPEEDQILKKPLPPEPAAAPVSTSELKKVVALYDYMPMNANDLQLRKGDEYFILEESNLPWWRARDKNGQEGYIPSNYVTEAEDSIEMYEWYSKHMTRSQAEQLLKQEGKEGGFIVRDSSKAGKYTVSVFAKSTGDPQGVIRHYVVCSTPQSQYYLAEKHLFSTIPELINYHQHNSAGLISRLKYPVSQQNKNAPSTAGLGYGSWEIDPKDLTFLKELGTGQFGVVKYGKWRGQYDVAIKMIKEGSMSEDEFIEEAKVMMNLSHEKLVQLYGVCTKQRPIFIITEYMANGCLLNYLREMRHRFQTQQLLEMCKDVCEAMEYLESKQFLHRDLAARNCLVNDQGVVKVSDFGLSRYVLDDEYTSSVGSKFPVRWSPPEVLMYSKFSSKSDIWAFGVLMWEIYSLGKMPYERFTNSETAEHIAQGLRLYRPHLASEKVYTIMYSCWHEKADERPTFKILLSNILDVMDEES
UniProt P00533, 25-1210 limits assumed: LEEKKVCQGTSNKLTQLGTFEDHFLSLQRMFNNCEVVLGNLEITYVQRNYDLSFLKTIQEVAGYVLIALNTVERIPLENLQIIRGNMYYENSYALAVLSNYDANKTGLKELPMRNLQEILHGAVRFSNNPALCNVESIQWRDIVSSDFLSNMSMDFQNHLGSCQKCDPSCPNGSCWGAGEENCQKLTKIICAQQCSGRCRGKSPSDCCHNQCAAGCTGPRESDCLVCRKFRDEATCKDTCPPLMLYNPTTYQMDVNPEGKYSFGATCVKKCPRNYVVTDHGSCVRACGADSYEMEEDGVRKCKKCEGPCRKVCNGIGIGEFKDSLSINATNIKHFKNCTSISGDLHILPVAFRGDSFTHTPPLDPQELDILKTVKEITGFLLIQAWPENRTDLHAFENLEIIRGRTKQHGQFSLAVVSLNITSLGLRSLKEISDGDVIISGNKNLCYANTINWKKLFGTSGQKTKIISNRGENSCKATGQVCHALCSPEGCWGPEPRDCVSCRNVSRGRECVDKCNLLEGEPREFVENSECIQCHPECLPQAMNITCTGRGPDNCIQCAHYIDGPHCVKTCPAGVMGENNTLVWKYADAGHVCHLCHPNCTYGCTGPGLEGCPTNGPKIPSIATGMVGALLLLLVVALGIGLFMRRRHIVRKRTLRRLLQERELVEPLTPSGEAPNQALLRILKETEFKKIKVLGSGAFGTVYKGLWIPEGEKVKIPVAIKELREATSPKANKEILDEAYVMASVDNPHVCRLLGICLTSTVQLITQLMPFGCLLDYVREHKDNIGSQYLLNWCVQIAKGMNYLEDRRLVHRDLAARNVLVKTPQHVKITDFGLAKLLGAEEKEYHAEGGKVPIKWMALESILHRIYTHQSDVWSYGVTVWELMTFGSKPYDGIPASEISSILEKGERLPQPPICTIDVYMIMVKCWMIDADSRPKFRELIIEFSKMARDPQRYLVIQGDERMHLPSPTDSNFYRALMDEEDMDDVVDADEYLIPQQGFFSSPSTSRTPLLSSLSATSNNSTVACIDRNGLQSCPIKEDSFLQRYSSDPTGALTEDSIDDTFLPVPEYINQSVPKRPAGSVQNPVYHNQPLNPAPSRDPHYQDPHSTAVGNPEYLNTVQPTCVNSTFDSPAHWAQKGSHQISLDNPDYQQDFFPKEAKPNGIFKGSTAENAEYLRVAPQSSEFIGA

Tests used:
[1] = molecular target: full-length human His-tagged BTK (Homo sapiens (Human), UniProt Q06187); experiment: BTK Assay (HTRF, Cisbio KinEASE-TK); assay type: biochemical; details: read-out: BTK IC50; 6 nM BTK, 30 uM ATP, 15 min preincubation
BTK = BTK (Homo sapiens (Human), UniProt Q06187); experiment: Inhibition of B-cell activation measured by CD69 expression in primary CD19+ cells; assay type: cell-based; details: read-out: B-cell CD69 IC50; primary CD19+ cells stimulated with anti-human IgD, CD69 expression by flow cytometry
EGFR = EGFR (Homo sapiens (Human), UniProt P00533); experiment: Inhibition of EGFR autophosphorylation in A431 human epithelial cells stimulated with EGF; details: read-out: A431 p-EGFR IC50, EGF 60 ng/mL, phospho EGFR

IC50 (BTK) [nM] | IC50 (EGFR) [nM] | Compound | IC50 [1] [nM]
24 | 6300 | CC#CC(=O)N1CC2(CC(n3nc(-c4ccc(OC5CC5)cc4)c(C(N)=O)c3N)C2)C1 | 4.3
 |  | C=CC(=O)N1CC[C@]2(C1)C[C@H](n1nc(-c3ccc(OCCC)c(Cl)c3)c(C(N)=O)c1N)C2 | 3.5
